Reference: patent US6979675B2, “Treatment of cancer with 2-deoxyglucose” (Threshold Pharmaceuticals, Inc., priority 2003, dated 2005)

Settings: other two groups (2000 and 4000 mg/kg/dose), bid×5
Experimental: The maximum tolerated dose determination for this study was conducted using female nude mice (nu/nu) between 5 and 6 weeks of age weighing approximately 20 g (Harlan, Inc., Madison, Wis.). Dosing began on Day 1. […] A 20 mL/kg dose volume was used to achieve doses of 2000, 4000, 6000, 8000, and 9000 mg/kg/dose. Individual mouse weights in grams were recorded twice weekly throughout the study. The average weight per group was calculated, and weight gain or loss was determined by comparing the current Day's average to the Day 1 average for that same group. The study was terminated on Day 21.

O=CC[C@@H](O)[C@H](O)[C@H](O)CO [2-DG, 2-deoxy-D-glucose]
deaths or weight loss: No deaths or weight loss
